Values of other authors as cited in paper PMC8232766, “Chemical Composition and Immunomodulatory Activity of Essential Oils from Rhododendron albiflorum” (Molecules, 2021).

Columns and labels:
human neutrophils [1] = test system: human neutrophils; parameters: method as in PMID 27586050, PMID 25959257; settings: direct effect; previous studies; cited from earlier work
human neutrophils [2] = settings: previous studies; cited from earlier work

Substance: (E/Z)-β-ocimene
- Activation of neutrophil Ca2+ mobilization (human neutrophils [1]): no activating effects
- Inhibition of agonist-induced neutrophil Ca2+ mobilization (human neutrophils [2]): no inhibitory effect
